# Tested on: S. marcescens
# Assay: Photosensitizer with or without H2O2 or PHMB, rate of kill, S. marcescens
# Type: cell-based
# Settings: red LED 630 nm, about 10^5 cfu/ml
smiles,measurement,setting,value
"CN(C)c1ccc2nc3ccc(=[N+](C)C)cc-3sc2c1 [MB, Methylene Blue]",Log reduction in bacterial viability,"10 μg/mL with 0.0005% PHMB, about 15 minutes",5-6 Log
same,Log reduction in bacterial viability,"10 μg/mL with 0.003% H2O2, one hour",5-6 Log
